7 molecules from PMC11470957, “Principles of paralog-specific targeted protein degradation engaging the C-degron E3 KLHDC2” (Nature Communications, 2024) can be followed below.

Amino acid sequences for entries named in this document (tags omitted). Residues count along the entry.
UniProt Q9Y2U9, 15-361 limits assumed: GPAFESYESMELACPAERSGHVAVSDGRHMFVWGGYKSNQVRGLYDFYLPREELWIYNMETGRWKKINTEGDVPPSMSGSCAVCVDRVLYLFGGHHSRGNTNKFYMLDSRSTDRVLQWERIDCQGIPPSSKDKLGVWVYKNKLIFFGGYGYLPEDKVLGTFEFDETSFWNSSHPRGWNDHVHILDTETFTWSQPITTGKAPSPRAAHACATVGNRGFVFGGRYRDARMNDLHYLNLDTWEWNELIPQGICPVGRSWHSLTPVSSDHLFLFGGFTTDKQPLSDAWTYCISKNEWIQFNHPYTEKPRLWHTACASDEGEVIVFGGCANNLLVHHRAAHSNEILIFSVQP

The term Kd denotes the constant that tells how readily two partners part at equilibrium. For orientation: IC50 means the midpoint of a concentration-inhibition curve. A word on the ΔTm: it is the change in melting temperature against a reference sample.

Like-named read-outs stand apart in the source and are kept apart here.

In test [1] the target is T1, KLHDC2^SBD (Homo sapiens, UniProt Q9Y2U9). Briefly: Surface plasmon resonance binding to KLHDC2. Conditions: read-out: SPR Kd. A general note: SPR reads the build-up and loss of mass on a sensor chip optically.
For test [2], the target named is T1, KLHDC2^SBD. Briefly: TR-FRET assay, competition with di-Gly degron peptide binding to KLHDC2^SBD. The note with it: read-out: TR-FRET IC50; inhibition of KLHDC2^SBD binding to a di-Gly degron peptide. (In general: TR-FRET usually uses a lanthanide donor and a delayed reading to cut background.)
Test [3] addresses T1, KLHDC2^SBD. Briefly: Thermal shift assay (Sypro Orange) probing stabilization of KLHDC2^SBD. Format: binding. Conditions: for ΔTm at 50 µM: 50 µM compound.

Consider `COc1ccn(-c2nc(CC(=O)NCC(=O)O)cs2)c(=O)c1`, for which the Kd in test [1] amounted to 13.5 µM. Further, in test [2], the IC50 came out at 57.6 µM.
As for `COCOc1ccc(-c2nc(CC(=O)NCC(=O)O)cs2)cc1C`, the “ΔTm at 50 µM” value in test [3] worked out at 2.6 ± 0.4 °C. The Kd in test [1] is 21.7 µM. In addition, in test [2], the IC50 is 27.6 µM.
As to `COCOc1ccc(-c2nc(CC(=O)NCS(=O)(=O)O)cs2)c(Cl)c1`, the “ΔTm at 50 µM” value in test [3] (tested form: DIPEA salt) was found to be 0.3 ± 0.05 °C. The Kd in test [1] (tested form: DIPEA salt) is above 2000 µM.
With `COc1ccc(-n2ccn(CC(=O)NCC(=O)O)c2=O)c(Cl)c1`, in test [1], the Kd is 181 µM.
Consider `O=C(O)CNC(=O)Cc1csc(-c2ccc3cccc(OCCN4CCNCC4)c3c2)n1`, for which the “Thermal shift ΔTm” value in test [3] (KLHDC2^SBD, ligand concentration not given, tested form: HCl) is 4.8 ± 0.08 °C.
As to `COCOc1ccc(-c2nc(CC(=O)NCC(=O)O)cs2)cc1`, the “ΔTm at 50 µM” value in test [3] worked out at 2.2 ± 0.2 °C. Also, the Kd in test [1] came to 30 µM. The IC50 in test [2] turned out to be 75.3 µM.
Turning to `COCCOc1ccc(-c2nc(CC(=O)NCC(=O)O)cs2)c(Cl)c1`, in test [3], the “ΔTm at 50 µM” value stood at 3.9 ± 0.4 °C. In test [1], the Kd was found to be 9.15 µM. In test [2], the IC50 stood at 23.8 µM.
